Here are results for 102 compounds from PubChem BioAssay AID588492 (Sanford-Burnham Center for Chemical Genomics, 2011).

Only a part is listed here, and it is no random draw. The source made the active and inactive calls.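 Rule for the calls: active = compounds giving at least 50% protection of heart cells from peroxide-induced death in the single-dose screen, raw or plate-pattern-corrected value; inactive = the rest.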

This assay in a line: H9c2 cardiomyocyte survival under peroxide injury – uHTS, H9c2 cells, ATPLite luminescence, primary screen (AID 588492).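 Note: 0% = DMSO wells with peroxide and 100% = DMSO wells without peroxide.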 Particulars: H9c2 cardiomyocytes, 2 h, at 20 µM, hits give high values.
On to `CN(C)C(=O)Oc1noc2ccccc12`, for which the protection from H2O2 cell death was inactive: -0.1%. In the case of `CC(NC(=O)COC(=O)C(O)(c1ccccc1)c1ccccc1)c1ccccc1` (configuration not stated) it was inactive: -8.8%; in that of `Cc1ccccc1OP(=O)(Nc1ccccn1)Oc1ccccc1C`, active: 60.7%. In the case of `CC(=O)NC(SC(=S)N(CC(C)C)CC(C)C)C(Cl)(Cl)Cl` (configuration not stated) it was inactive: 6.4%; in that of `Cc1ccc(OP(=O)(Nc2ccccn2)Oc2ccc(C)cc2)cc1`, inactive: -12.8%; in that of `COC(=O)c1cc2c(s1)N=C(c1ccccc1)N(C)P2(=O)N1CCOCC1` (configuration not stated), inactive: 10.7%. Under `CCC(=O)N1C2C3N(C(=O)CC)C1C1N(C(=O)CC)C(C(N1C(=O)CC)N3C(=O)CC)N2C(=O)CC` stands inactive: 7%; under `O=C(OC1CN2CCC1CC2)c1ccccc1` (configuration not stated), inactive: -5.4%; under `O=P1(N(CCCl)CCCl)OCCC2CCCCN21` (configuration not stated), inactive: -2%. As for `O=C(NC1CCS(=O)(=O)C1)NP(=S)(Oc1ccccc1)Oc1ccccc1` (configuration not stated), the protection from H2O2 cell death is inactive: 0.9%. As to `CCNC(=S)/N=C(\N)N[N+](=O)[O-]`, the protection from H2O2 cell death is inactive: -6%.

For the compound `Cc1ccc(NP(=O)(Oc2cccc(C)c2)Oc2cccc(C)c2)nc1`, the protection from H2O2 cell death was inactive: -1%.

As for `c1ccc(-c2nn[nH]n2)c(-c2nn[nH]n2)c1`, the protection from H2O2 cell death is inactive: -3.3%. Under `CCN(N=Nc1nonc1N)c1nonc1N` stands inactive: 0.1%; under `Nc1cccc2ccc([As](=O)(O)O)cc12`, inactive: -2.4%; under `CN(C(=O)Cc1ccc(Cl)c(Cl)c1)[C@H]1CCCC[C@@H]1N1CCCC1`, inactive: 3.1%. In the case of `Cc1ccc(NP(=O)(Oc2ccccc2F)Oc2ccccc2F)nc1` it was inactive: -5.5%; in that of `Cc1cc(SC(NC(=O)c2ccc(F)cc2)C(Cl)(Cl)Cl)ncn1` (configuration not stated), inactive: 1.2%. Under `CCOP(=O)(Nc1ccccc1)OCC` stands inactive: 7.1%; under `CCCC1OP(N)(=O)OCC1CC` (configuration not stated), inactive: 1.9%; under `CC(=O)Nc1ccc([As](=O)(O)O)cc1`, inactive: 3%. As to `O=C(O)c1ccccc1[As](=O)(O)O`, the protection from H2O2 cell death is inactive: 2.6%.

For the compound `O=P(Nc1nc2ccc(Cl)cc2s1)(c1ccccc1)c1ccccc1`, the protection from H2O2 cell death was inactive: -1.5%. Under `CN(C)P(=O)(N(C)C)n1c(Nc2ccccc2)nnc1-c1ccccc1` stands inactive: -2.5%; under `O=[N+]([O-])C1C(O)C(O)C([N+](=O)[O-])C(O)C1O` (configuration not stated), inactive: 1.5%. Consider `Nc1cc(N)c2nonc2c1[N+](=O)[O-]`, for which the protection from H2O2 cell death is inactive: 6.3%.

Consider `CC(C)CC(=O)NC(Sc1ccc(Cl)cc1)C(Cl)(Cl)Cl` (configuration not stated), for which the protection from H2O2 cell death was inactive: -5.8%.

Consider `O=C(NC(Sc1ccncn1)C(Cl)(Cl)Cl)c1ccccc1` (configuration not stated), for which the protection from H2O2 cell death was inactive: 5.9%. In the case of `Oc1ccccc1CNc1ccccn1` it was inactive: 2.3%. Under `Cc1ccc(OP(=O)(Nc2nccs2)Oc2ccc(C)cc2)cc1` stands inactive: 3.5%; under `COc1ccccc1OP(=O)(Nc1ccc(C)cn1)Oc1ccccc1OC`, inactive: 22.6%. Under `CN1CCCC(OC(=O)C(c2ccccc2)c2ccccc2)C1` (configuration not stated) stands inactive: -1.7%; under `Clc1ccc(Cl)c(NC2=NCC(CBr)S2)c1` (configuration not stated), inactive: -10.2%.

As for `NC(=O)c1cc([N+](=O)[O-])cc([N+](=O)[O-])c1N`, the protection from H2O2 cell death is inactive: 2.7%.

`Cc1ccc(N/C(=N/P(=O)(N2CCOCC2)N2CCOCC2)N2CCOCC2)cc1`: the protection from H2O2 cell death was inactive: -3%. Turning to `CN(C(=O)Cc1ccc(Cl)c(Cl)c1)[C@H]1CCCC[C@H]1N1CCCC1`, the protection from H2O2 cell death was inactive: -1.9%. Under `CN(C)C(=O)OCCc1n(C)cc[n+]1C` stands inactive: -1.4%; under `CC(C)c1nc(Nc2ccccc2)n(P(=O)(N(C)C)N(C)C)n1`, inactive: 8.9%. Under `CC(C)=N/N=C(\N)N[N+](=O)[O-]` stands inactive: 7.8%; under `CC1CCN(C(=O)Oc2c(Cl)cc(Cl)c3cccnc23)CC1`, inactive: -3.9%; under `c1cc(-c2nn[nH]n2)ccc1-c1nn[nH]n1`, inactive: 3.3%. Under `C[N+]1=C2C=CC=CC=C2SC12C([N+](=O)[O-])=CC([N+](=O)[O-])=C[C-]2[N+](=O)[O-]` (configuration not stated) stands inactive: -15.5%. For the compound `Nc1ccc([As](=O)(O)c2ccc(N)cc2)cc1`, the protection from H2O2 cell death is inactive: 1.3%. Under `CCN(/C(=N/P(=O)(N1CCOCC1)N1CCOCC1)N1CCOCC1)c1ccc(OC)cc1` stands inactive: -0.5%. Under `CC(=O)N1C2C3N(C(C)=O)C1C1N(C(C)=O)C(C(N1C(C)=O)N3C(C)=O)N2C(C)=O` stands inactive: 14.1%; under `O=[N+]([O-])c1cccc2n[nH]nc12`, inactive: -3.9%; under `O=[N+]([O-])c1cc([N+](=O)[O-])c(CCNc2ccccc2)c([N+](=O)[O-])c1`, inactive: 2%. Regarding `CCc1nc2c(n1)c1c(non1O)c1c2no[n+]1[O-]`, the protection from H2O2 cell death was inactive: -5.1%.

For the compound `Cc1ccc(NP(=O)(Oc2ccccc2)Oc2ccccc2)nc1`, the protection from H2O2 cell death is inactive: -6.7%. Consider `COc1ccc(C2=NCC(CBr)S2)cc1` (configuration not stated), for which the protection from H2O2 cell death is inactive: 3.6%. In the case of `COC(=O)C1(C)COP(=O)(Nc2ccccc2)OC1` (configuration not stated) it was inactive: 6.1%. For the compound `O=[N+]([O-])c1cccc(NC2=NCC(CBr)S2)c1` (configuration not stated), the protection from H2O2 cell death is inactive: -1.6%.

`O=C(O)CNc1ccc([As](=O)(O)O)cc1`: the protection from H2O2 cell death is inactive: -5.6%. In the case of `CC(C)(C)C(=O)NC(Sc1ccncn1)C(Cl)(Cl)Cl` (configuration not stated) it was inactive: 7.8%; in that of `O=[N+]([O-])c1ncn(CCn2ncnc2[N+](=O)[O-])n1`, inactive: 3.7%.

For the compound `O=C(Nc1cc([As](=O)(O)O)ccc1O)c1ccccc1`, the protection from H2O2 cell death is inactive: -1.1%.

As for `O=P1(N(CCCl)CCCl)OCCCS1` (configuration not stated), the protection from H2O2 cell death is inactive: 2.4%. Under `O=[N+]([O-])c1ccc(Nc2ccc(Oc3ccc([N+](=O)[O-])cc3[N+](=O)[O-])cc2)c([N+](=O)[O-])c1` stands inactive: -2.1%. In the case of `Cc1cc(SC(NC=O)C(Cl)(Cl)Cl)ncn1` (configuration not stated) it was inactive: 1%; in that of `O=P(Nc1ccccn1)(c1cccc2ccccc12)c1cccc2ccccc12`, inactive: -2.7%.

Take `CCOC(=O)Nc1cccc([As](=O)(O)O)c1`: the protection from H2O2 cell death was inactive: 0%. Under `Cc1cc(SC(NC(=O)c2ccccc2)C(Cl)(Cl)Cl)nc(C(C)C)n1` (configuration not stated) stands inactive: -2%.

In the case of `COP(=O)(OC)N1CC1c1ccccc1` (configuration not stated), the protection from H2O2 cell death is inactive: -4.8%.

In the case of `CC1CCNP(=O)(N(CCCl)CCCl)O1` (configuration not stated), the protection from H2O2 cell death was inactive: -0.5%. On to `O=C(O)C(O)c1ccc(N(CCCl)CCCl)cc1` (configuration not stated), for which the protection from H2O2 cell death is inactive: -1.8%. In the case of `CCOC(=O)Nc1ccc([As](=O)(O)O)c(O)c1` it was inactive: 0.7%. In the case of `CCC(C)N(CC(C)C)C(=S)SC(NC(C)=O)C(Cl)(Cl)Cl` (configuration not stated) it was inactive: -0.6%; in that of `CCOC(=O)c1ccc(NC(=O)C(C)(CCl)SC)cc1` (configuration not stated), inactive: -0.4%; in that of `CSc1ccc(Nc2c([N+](=O)[O-])cc([N+](=O)[O-])cc2[N+](=O)[O-])cc1`, inactive: -19.4%.

As for `O=C(OC1CN2CCC1CC2)c1cccc([N+](=O)[O-])c1` (configuration not stated), the protection from H2O2 cell death was inactive: 11.2%.

For `O=C(Nc1ccncc1[N+](=O)[O-])c1ccc([N+](=O)[O-])cc1[N+](=O)[O-]`, the protection from H2O2 cell death is inactive: 4.1%. Take `O=C(COc1ccccc1)OC1CN2CCC1CC2` (configuration not stated): the protection from H2O2 cell death is inactive: 5.9%. In the case of `O=C(O)C(=O)c1ccc(N(CCCl)CCCl)cc1` it was inactive: -1.1%. Regarding `COC(=O)C1(C)COP(=O)(N2CCCC2)OC1` (configuration not stated), the protection from H2O2 cell death is inactive: 7.7%. Under `COP1(=S)c2c(C)nn(CCC#N)c2N=C(c2ccc(F)cc2)N1C` (configuration not stated) stands inactive: 9.5%; under `COc1ccc(N/C(=N/P(=O)(N2CCOCC2)N2CCOCC2)N2CCOCC2)cc1`, inactive: 4.8%; under `O=[N+]([O-])c1cc(Oc2ccc([N+](=O)[O-])cc2C(F)(F)F)cc([N+](=O)[O-])c1`, inactive: -9.9%. With `COc1cc(I)ccc1[As](=O)(O)O`, the protection from H2O2 cell death was inactive: 0%. For the compound `COc1ccc2nc(NP(=O)(c3ccccc3)c3ccccc3)sc2c1`, the protection from H2O2 cell death is inactive: 11.3%.

Turning to `O=P1(N(CCCl)CCCl)OCCCN1CCCl` (configuration not stated), the protection from H2O2 cell death was inactive: 2.9%. In the case of `O=P1(N(CCCl)CCCl)Nc2ccccc2N1` it was active: 59.2%.

For the compound `Cc1cc(=O)[nH]c(N[N+](=O)[O-])n1`, the protection from H2O2 cell death is inactive: -0.6%. With `O=C(OC1CN2CCC1CC2)C12CC3CC(CC(C3)C1)C2` (configuration not stated), the protection from H2O2 cell death is inactive: -4.4%. In the case of `Cc1c2c(nc3ccccc13)SC(C(Cl)Cl)C2` (configuration not stated) it was inactive: -3.3%. Take `O=[N+]([O-])c1cc([N+](=O)[O-])c(-c2ccn[nH]2)s1`: the protection from H2O2 cell death is inactive: -23.2%. Consider `CC(C)NC(=O)NP(=O)(Oc1ccccc1)Oc1ccccc1`, for which the protection from H2O2 cell death was inactive: -2.5%.

With `CCN(CC)C(=S)SC(NC=O)C(Cl)(Cl)Cl` (configuration not stated), the protection from H2O2 cell death was inactive: -8.3%. Under `O=C(OC1CN2CCC1CC2)c1cccc2[nH]cnc12` (configuration not stated) stands inactive: 9.1%; under `COC(=O)C1(C)COP(=O)(N2CCCCCC2)OC1` (configuration not stated), inactive: -2.1%; under `CC(C)c1ccc(OP(=O)(Nc2ccccn2)Oc2ccccc2F)cc1` (configuration not stated), inactive: -4.5%. Consider `ClCCSc1nnc(-c2cccnc2)o1`, for which the protection from H2O2 cell death is inactive: 3%. Under `Cc1ccc2nc3c(c(C)c2c1)CC(C(Cl)Cl)S3` (configuration not stated) stands inactive: -3.3%; under `Cc1ccc(OP(=O)(Nc2ccc([N+](=O)[O-])cn2)Oc2ccc(C)cc2)cc1`, inactive: -7.2%; under `O=[N+]([O-])c1ccc(-c2cc([N+](=O)[O-])c(O)c([N+](=O)[O-])c2)cc1`, inactive: -0.1%. With `C[As](=O)(O)c1cccc(C(=O)O)c1`, the protection from H2O2 cell death was inactive: -3.9%. Under `O=[As](O)(c1ccc(O)cc1)c1ccccc1O` stands inactive: 0.4%; under `CN(C(=O)Cc1ccc(Cl)c(Cl)c1)[C@H]1CC[C@@]2(CCCO2)C[C@@H]1N1CCCC1`, inactive: 2.3%. Under `O=[N+]([O-])c1ccc2c(c1)nnn2O` stands inactive: -6.1%; under `CN(C)C(=O)c1cc([N+](=O)[O-])cc2c1-c1c(cc([N+](=O)[O-])cc1[N+](=O)[O-])C2=O`, inactive: -13.6%. Under `CCOP1(=S)c2c(C)nn(CCC#N)c2N=C(c2ccc(F)cc2)N1C` (configuration not stated) stands inactive: 4%; under `CN(C(=O)Cc1ccccc1)[C@@H]1CC[C@]2(CCCO2)C[C@H]1N1CCCC1`, inactive: 1.1%. For the compound `N#CCCN(C(=O)COC(=O)C(O)(c1ccccc1)c1ccccc1)c1ccc(F)cc1`, the protection from H2O2 cell death was inactive: -5.5%.
